Measured values: US4604406A, “N-[6-methoxy-5-(perfluoroalkyl)-1-naphtholyl]-N-methylglycines and their thionaphthoyl analogs” (Ayerst, McKenna & Harrison, Inc., priority 1984, dated 1986)

Biological target: aldose reductase (Bos taurus, UniProt P16116)
Assay: % inhibition in vitro at 10^-7 M (aldose reductase inhibition)
Format: biochemical

Which inhibition at 0.1 µM does the source give for `COc1ccc2c(C(=S)N(C)CC(=O)O)cccc2c1C(F)(F)F` [Compound 7, N--[[5-(Trifluoromethyl)-6-methoxy-1-naphthalenyl]thioxomethyl]-N--methylglycine, reference compound] here?
The inhibition at 0.1 µM was 79%.
